Consider 101 molecules from PubChem BioAssay AID463195 (Sanford-Burnham Center for Chemical Genomics, 2010).

Broadly, the inhibition is the drop in the measured response relative to a control, in per cent.

This is a selection; strong and weak results do not stand in their true shares. Activity calls are given as the source filed them.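 The calls were made as follows: active = inhibition of 40% or more at the single tested concentration; inactive = the rest.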

The nature of the assay: wild-type TIM10 yeast growth inhibition – luminescence, uHTS, counter-screen for tim10-1 yeast inhibitor project, primary screen (AID 463195).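 Also: wild-type TIM10 isogenic control strain grown at permissive 25 °C; 0% = DMSO yeast wells and 100% = minimal medium wells without yeast.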 Conditions: S. cerevisiae TIM10 strain growth, BacTiter-Glo luminescence, 24 h; at 10 µM; stronger effect = higher value.
`NC(=O)Nc1ccc([As](=O)(O)O)cc1`: the inhibition was inactive: -0.771%.
On to `N#CCCN(C(=O)COC(=O)C(O)(c1ccccc1)c1ccccc1)c1ccc(F)cc1`, for which the inhibition is inactive: 13%.
The value for `CN(C(=O)Cc1ccccc1)[C@@H]1CC[C@]2(CCCO2)C[C@H]1N1CCCC1` was inactive: 8.1%.
For the molecule `CCOP1(=S)c2c(C)nn(CCC#N)c2N=C(c2ccc(F)cc2)N1C` (stereo unspecified), the inhibition was inactive: 2.44%.
As for `O=[N+]([O-])c1ccc2c(c1)nnn2O`, the inhibition was inactive: -3.72%.
In the case of `CN(C)C(=O)c1cc([N+](=O)[O-])cc2c1-c1c(cc([N+](=O)[O-])cc1[N+](=O)[O-])C2=O` it was active: 78.3%.
As to `CN(C(=O)Cc1ccc(Cl)c(Cl)c1)[C@H]1CC[C@@]2(CCCO2)C[C@@H]1N1CCCC1`, the inhibition is inactive: 1.19%.
For `CCOP1(=S)c2c(C)nn(CCC#N)c2N=C(c2ccccc2F)N1C` (stereo unspecified), the inhibition is inactive: 27.3%.
`O=P(Nc1nccs1)(Oc1ccccc1)Oc1ccccc1`: the inhibition was inactive: 15.3%.
For `O=P(Nc1nccs1)(c1ccccc1)c1nc2ccccc2s1` (stereo unspecified), the inhibition is inactive: -10.2%.
The value for `CS(=O)(=O)c1cc([N+](=O)[O-])c2no[n+]([O-])c2c1` was inactive: -1.21%; that for `Nc1ccccc1[As](=O)(O)c1ccccc1` was inactive: -6.35%.
Consider `O=C(O)COc1ccc([As](=O)(O)O)cc1[N+](=O)[O-]`, for which the inhibition was inactive: -7.77%.
In the case of `Cc1ccc(NCCc2c([N+](=O)[O-])cc([N+](=O)[O-])cc2[N+](=O)[O-])cc1` it was active: 47.3%.
The value for `CCCOP(=S)(Nc1nc(N)cc(=O)[nH]1)OCCC` was inactive: -10.7%.
In the case of `COc1cc(C2NCCC3(OCCO3)C2(C)C)cc(OC)c1OC` (stereo unspecified) it was inactive: 6.84%.
For `CCOP(=O)(Nc1cccc2ccccc12)OCC`, the inhibition was inactive: -0.764%.
In the case of `O=C(OC1CN2CCC1CC2)c1ccc(Cl)cc1` (stereo unspecified), the inhibition is inactive: -12.2%.
Turning to `O=[As](O)(O)c1cccnc1`, the inhibition was inactive: -0.425%.
In the case of `COc1cc(C(=O)NCC2(N3CCOCC3)CCCCC2)cc(Cl)c1OC(C)C`, the inhibition was inactive: 8.47%.
In the case of `CS(=O)(=O)c1ccc(Cl)c(NC(=O)COC(=O)C(O)(c2ccccc2)c2ccccc2)c1` it was inactive: 4.15%.
In the case of `Cc1cccc(OCC(=O)OC2CN3CCC2CC3)c1` (stereo unspecified) it was inactive: -6.7%.
The value for `O=[As](O)(c1cccc(O)c1)c1cccc(O)c1` was inactive: 12.1%; that for `COc1ccccc1CNC(=O)COC(=O)C(O)(c1ccccc1)c1ccccc1` was inactive: 15.8%.
As to `CC(C)/C=N\N=C(\N)N[N+](=O)[O-]`, the inhibition is inactive: -12.2%.
For the molecule `CN(C(=O)Cc1ccc(Cl)c(Cl)c1)[C@@H]1CCCC[C@H]1N1CCCC1`, the inhibition is inactive: 2.91%.
On to `O=[As](O)(c1ccccc1Br)c1ccccc1Br`, for which the inhibition was inactive: 8.47%.
Turning to `CC1(CBr)Cn2c(nc3ccccc3c2=O)S1` (stereo unspecified), the inhibition was inactive: -12.3%.
The value for `O=P1(Nc2ccccn2)COc2ccccc2OC1` was inactive: -8.02%.
For the molecule `CCC1=CC2Cc3nc4ccc(Cl)cc4c(N)c3C(C1)C2` (stereo unspecified), the inhibition is inactive: 0.468%.
In the case of `CCOP(=O)(NC(=NC(C)c1ccccc1)NC(C)c1ccccc1)OCC` (stereo unspecified) it was inactive: 25%; in that of `CCOP(=O)(Nc1ccc(C)cn1)OCC`, inactive: -17.6%; in that of `CN(CCCl)Cc1cc(Cl)c(NC2=NCCN2)c(Cl)c1`, inactive: -9.45%.
With `Clc1n[nH]nc1-c1nn[nH][15n]1`, the inhibition is inactive: 4.53%.
As to `CC(C)(C)C(=O)NC(Sc1ncccn1)C(Cl)(Cl)Cl` (stereo unspecified), the inhibition is inactive: -3.95%.
The value for `O=P1(Nc2ncccn2)COc2ccccc2OC1` was inactive: -19.4%; that for `Nc1cccc([As](=O)(O)c2ccccc2)c1` was inactive: -10.4%; that for `Cc1ccc(OCC(=O)OC2CN3CCC2CC3)cc1` (stereo unspecified) was inactive: -4.66%.
The value for `O=[As](O)(c1cccs1)c1cccs1` was inactive: 5.03%; that for `O=P1(Nc2ccc(Br)cn2)COc2ccccc2OC1` was inactive: -1.07%; that for `NS(=O)(=O)c1cccc(NC(=O)COC(=O)C(O)(c2ccccc2)c2ccccc2)c1` was inactive: 4.28%.
As for `Cc1nn(-c2ccccc2)c2c1P(=O)(N1CCOCC1)N(C)C(c1ccccc1)=N2` (stereo unspecified), the inhibition was inactive: 6.17%.
The value for `CC1CCC(C(C)C)C(OP(=O)(Nc2ccccn2)c2ccccc2)C1` (stereo unspecified) was inactive: 31.4%.
The value for `Cc1ccc(C(=O)OC2CN3CCC2CC3)cc1` (stereo unspecified) was inactive: -0.553%; that for `CN(C)C1(CNC(=O)c2ccc(S(C)(=O)=O)cc2)CCCCC1` was inactive: -23.6%.
With `O=C(/C=C/c1ccccc1)OC1CN2CCC1CC2` (stereo unspecified), the inhibition is inactive: 6.33%.
In the case of `CCOC(=O)Nc1cccc([As](=O)(O)O)c1`, the inhibition was inactive: 6.75%.
Regarding `O=P(Nc1ccccn1)(c1cccc2ccccc12)c1cccc2ccccc12`, the inhibition is inactive: 28.1%.
The value for `Cc1cc(SC(NC=O)C(Cl)(Cl)Cl)ncn1` (stereo unspecified) was inactive: 10.5%; that for `CCOC(=O)Nc1ccc([As](=O)(O)O)c(O)c1` was inactive: 0.815%; that for `CCCCOc1ccc(C(=O)NCC2(N3CCCCC3)CCCCC2)cc1OC` was inactive: 6.18%.
Regarding `Cc1cc(SC(NC(=O)c2ccccc2)C(Cl)(Cl)Cl)nc(C(C)C)n1` (stereo unspecified), the inhibition is inactive: 24.2%.
In the case of `O=C(OC1CN2CCC1CC2)c1cccc([N+](=O)[O-])c1` (stereo unspecified) it was inactive: -99.5%; in that of `CCOC(=O)c1ccc(NC(=O)C(C)(CCl)SC)cc1` (stereo unspecified), inactive: -2.35%; in that of `CCC(C)N(CC(C)C)C(=S)SC(NC(C)=O)C(Cl)(Cl)Cl` (stereo unspecified), inactive: 10.3%.
The value for `COP1(=S)c2c(C)nn(CCC#N)c2N=C(c2ccc(F)cc2)N1C` (stereo unspecified) was inactive: 4.43%; that for `O=C(COc1ccccc1)OC1CN2CCC1CC2` (stereo unspecified) was inactive: -21.8%; that for `O=C(Nc1ccncc1[N+](=O)[O-])c1ccc([N+](=O)[O-])cc1[N+](=O)[O-]` was inactive: 25%.
For `COc1ccc(N/C(=N/P(=O)(N2CCOCC2)N2CCOCC2)N2CCOCC2)cc1`, the inhibition is inactive: -7.1%.
The value for `Cc1c2c(nc3ccccc13)SC(C(Cl)Cl)C2` (stereo unspecified) was inactive: -1.06%; that for `O=C(OC1CN2CCC1CC2)C12CC3CC(CC(C3)C1)C2` (stereo unspecified) was inactive: -3.7%.
The value for `Cc1cc(=O)[nH]c(N[N+](=O)[O-])n1` was inactive: -6.52%; that for `COc1ccc2nc(NP(=O)(c3ccccc3)c3ccccc3)sc2c1` was inactive: -15.2%; that for `COc1cc(I)ccc1[As](=O)(O)O` was inactive: 4.63%.
The value for `ClCCSc1nnc(-c2cccnc2)o1` was inactive: 4.72%; that for `CC(C)c1ccc(OP(=O)(Nc2ccccn2)Oc2ccccc2F)cc1` (stereo unspecified) was inactive: 0.45%.
For the molecule `CC(C)NC(=O)NP(=O)(Oc1ccccc1)Oc1ccccc1`, the inhibition was inactive: 10.9%.
The value for `CCN(CC)C(=S)SC(NC=O)C(Cl)(Cl)Cl` (stereo unspecified) was inactive: 13.7%; that for `O=C(OC1CN2CCC1CC2)c1cccc2[nH]cnc12` (stereo unspecified) was inactive: 0.14%; that for `O=[N+]([O-])c1cc([N+](=O)[O-])c(-c2ccn[nH]2)s1` was active: 88%.
The value for `C[As](=O)(O)c1cccc(C(=O)O)c1` was inactive: -4.24%.
In the case of `O=[As](O)(c1ccc(O)cc1)c1ccccc1O` it was inactive: -5.57%; in that of `COc1cc(C(=O)NCC2(N3CCOCC3)CCCCC2)ccc1OCC(C)C`, inactive: 9.61%.
Regarding `Cc1ccc(OP(=O)(Nc2ccc([N+](=O)[O-])cn2)Oc2ccc(C)cc2)cc1`, the inhibition is inactive: -7.08%.
In the case of `Cc1ccc2nc3c(c(C)c2c1)CC(C(Cl)Cl)S3` (stereo unspecified) it was inactive: 8.68%; in that of `O=[N+]([O-])c1cc([N+](=O)[O-])c(CCN2CCOCC2)c([N+](=O)[O-])c1`, inactive: 14.5%; in that of `CCN(N=Nc1nonc1N)c1nonc1N`, inactive: 4.47%.
In the case of `O=P(Nc1nc2ccc(Cl)cc2s1)(c1ccccc1)c1ccccc1` it was inactive: 20.7%; in that of `CC(=O)Nc1ccc([As](=O)(O)O)cc1`, inactive: 13.8%.
On to `O=C(O)c1ccccc1[As](=O)(O)O`, for which the inhibition was inactive: 3.56%.
With `Cc1cc(SC(NC(=O)c2ccc(F)cc2)C(Cl)(Cl)Cl)ncn1` (stereo unspecified), the inhibition was inactive: -3.19%.
The value for `CCOP(=O)(Nc1ccccc1)OCC` was inactive: 3.59%; that for `Cc1ccc(NP(=O)(Oc2ccccc2F)Oc2ccccc2F)nc1` was inactive: 18.8%.
The value for `CN(C(=O)Cc1ccc(Cl)c(Cl)c1)[C@H]1CCCC[C@@H]1N1CCCC1` was inactive: -0.573%; that for `Oc1ccccc1CNc1ccccn1` was inactive: -8.94%.
In the case of `O=C(NC(Sc1ccncn1)C(Cl)(Cl)Cl)c1ccccc1` (stereo unspecified) it was inactive: 18%.
Turning to `Cc1c2non([O-])c-2c(C)[n+](=O)[n+]1[O-]`, the inhibition was inactive: 32.4%.
In the case of `Nc1cc(N)c2nonc2c1[N+](=O)[O-]` it was inactive: 7.14%; in that of `CC(C)CC(=O)NC(Sc1ccc(Cl)cc1)C(Cl)(Cl)Cl` (stereo unspecified), inactive: 8.84%; in that of `CN(C(=O)Cc1ccc(Cl)c(Cl)c1)[C@H]1CCCC[C@H]1N1CCCC1`, inactive: 4.6%.
On to `Cc1ccc(N/C(=N/P(=O)(N2CCOCC2)N2CCOCC2)N2CCOCC2)cc1`, for which the inhibition is inactive: 10.1%.
The value for `NC(=O)c1cc([N+](=O)[O-])cc([N+](=O)[O-])c1N` was inactive: -4.98%.
Turning to `CN1CCCC(OC(=O)C(c2ccccc2)c2ccccc2)C1` (stereo unspecified), the inhibition was inactive: -9.98%.
The value for `Clc1ccc(Cl)c(NC2=NCC(CBr)S2)c1` (stereo unspecified) was inactive: 14.5%; that for `COc1ccccc1OP(=O)(Nc1ccc(C)cn1)Oc1ccccc1OC` was inactive: -3.25%; that for `Cc1ccc(OP(=O)(Nc2nccs2)Oc2ccc(C)cc2)cc1` was inactive: 20.9%.
The value for `CCN(/C(=N/P(=O)(N1CCOCC1)N1CCOCC1)N1CCOCC1)c1ccc(OC)cc1` was inactive: -7.72%; that for `Nc1ccc([As](=O)(O)c2ccc(N)cc2)cc1` was inactive: 5.18%.
The value for `C[N+]1=C2C=CC=CC=C2SC12C([N+](=O)[O-])=CC([N+](=O)[O-])=C[C-]2[N+](=O)[O-]` (stereo unspecified) was inactive: 15.8%; that for `CC1CCN(C(=O)Oc2c(Cl)cc(Cl)c3cccnc23)CC1` was inactive: 27.8%; that for `CC(C)=N/N=C(\N)N[N+](=O)[O-]` was inactive: 1.23%.
